Laboratory results reported in patent US20080161247A1, “Synergistic composition for modulating activity of substrate analogs for NAD+, NADP+, NADH or NADPH dependent enzymes and process thereof” (priority 2006, published 2008).
Like-named read-outs stand apart in the source and are kept apart here.

What was measured:
PfENR = target: T1, PfENR (Plasmodium falciparum, UniProt Q9BH77); format: binding; conditions: read-out: Kd of EGCG in the presence of triclosan, saturation kinetics; 10 μM triclosan
T1 construct: The overexpression of PfENR was carried out [22]; made in house
Protocol: Binding studies of [^3H] […] Briefly, for gel filtration chromatography, 2 ml Sephadex G-25 column was packed and equilibrated with the reaction buffer. For each run 50 μl of the reaction mixture was loaded and 20 fractions of 100 μl were collected at 0.25 ml/min flow rate. All the fractions were spotted on Whatman 3 filter paper and dried before taking the counts. In the filter binding assay method, the reaction mixtures were directly applied on the activated Polyvinylidene difluoride (PVDF) membrane fixed in a filtration assembly. The filters were washed with 200 μl of reaction buffer and dried. Dried filters were transferred to vials containing 5 ml scintillation fluid and the radioactivity measured using a Hewlett Packard liquid scintillation counter.
To check the binding of [^3H] […] The concentration of [^3H]
[^3H] […] (FIG. 4d) Double reciprocal plot of the same data is shown in the inset.
The binding constants for the above experiments were determined from saturation plots and by Scatchard plot or double reciprocal plot using equation 2a and 2b described under evaluation section.

[1] = target: T2, Plasmodium falciparum enoyl-Acyl carrier protein (ACP) reductase (PfENR) (Plasmodium falciparum, UniProt Q9BH77); conditions: for Ki: Dixon plot
T2 sequence (Q9BH77 22-432): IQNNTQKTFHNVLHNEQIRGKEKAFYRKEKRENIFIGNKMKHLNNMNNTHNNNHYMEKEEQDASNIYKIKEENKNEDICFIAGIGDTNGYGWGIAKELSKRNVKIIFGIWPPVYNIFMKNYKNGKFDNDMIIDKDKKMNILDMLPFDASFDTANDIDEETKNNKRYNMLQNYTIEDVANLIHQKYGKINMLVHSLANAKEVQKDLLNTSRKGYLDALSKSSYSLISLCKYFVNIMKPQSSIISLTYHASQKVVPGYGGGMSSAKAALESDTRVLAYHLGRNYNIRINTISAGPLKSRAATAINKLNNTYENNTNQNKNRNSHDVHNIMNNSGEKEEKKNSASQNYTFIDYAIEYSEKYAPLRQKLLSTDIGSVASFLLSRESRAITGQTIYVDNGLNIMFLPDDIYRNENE

Substance: (−) epigallocatechin gallate [EGCG]
- Kd (PfENR): 89 ± 2.3 nM
- IC50 ([1]; read-out: IC50 [μM] with PfENR, 30 nM PfENR, 200 μM crotonoyl-CoA, 100 μM NADH): 0.25 ± 0.0062 µM
- IC50 ([1]; read-out: IC50 values with PfENR, Table 6): 0.25 ± 0.062 µM
- IC50 ([1]; read-out: IC50 with PfENR, FIG. 1A): 0.25 ± 0.0062 µM
- Ki ([1]; read-out: Ki against crotonoyl-CoA (absence of triclosan)): 79 ± 2.67 nM
- Ki ([1]; read-out: Ki in presence of TCL, Ki of the catechin at 50 nM and 100 nM triclosan): 8 ± 0.56 nM
- Ki ([1]; read-out: Ki w.r.t. NADH, competitive, NADH 50, 100, 200 μM, crotonoyl-CoA 200 μM): 186 ± 7.98 nM
